Protein sequences, listed by entry. Tags and fused reporters are not part of them. Residues count along the entry.
UniProt P51449, 269-508: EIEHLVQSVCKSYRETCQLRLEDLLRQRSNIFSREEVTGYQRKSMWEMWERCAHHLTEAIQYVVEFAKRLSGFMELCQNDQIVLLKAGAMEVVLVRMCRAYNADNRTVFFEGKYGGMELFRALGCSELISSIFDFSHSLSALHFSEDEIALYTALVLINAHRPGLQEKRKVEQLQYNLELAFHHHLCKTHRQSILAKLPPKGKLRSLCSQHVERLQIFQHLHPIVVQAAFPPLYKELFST

In patent US9216988B2, “Benzyl sulfonamide derivatives as RORc modulators” (Genentech, Inc., priority 2011, dated 2015):

Target: RORc ligand binding domain (Homo sapiens (Human), UniProt P51449)
Details: read-out: RORc IC50; two values in a cell = separated enantiomers, stereochemical identity not determined

Point of comparison: `CC(=O)N1CCN(c2ccc(CN(C3CCC3)S(=O)(=O)Cc3cc(F)ccc3F)c(F)c2)CC1` [Compound 87, N-[4-(4-Acetyl-piperazin-1-yl)-2-fluoro-benzyl]-N-cyclobutyl-C-(2,5-difluoro-phenyl)-methanesulfonamide], IC50 13 nM. Against it:
- CC(C)CN(Cc1ccc(N2CCC(N(C)C)CC2)cc1)S(=O)(=O)Cc1ccccc1 [Compound 23, N-[4-(4-Dimethylamino-piperidin-1-yl)-benzyl]-N-isobutyl-C-phenyl-methanesulfonamide] — 230-fold higher, 3000 nM
- CC(C)CN(Cc1ccc(N[C@@H]2CCN(S(C)(=O)=O)C[C@@H]2F)cc1)S(=O)(=O)Cc1ccccc1 [Compound 199, N-(4-(((3S,4R)-3-fluoro-1-(methylsulfonyl)piperidin-4-yl)amino)benzyl)-N-isobutyl-1-phenylmethanesulfonamide] — 2.2-fold higher, 28 nM
- CC(=O)N1CCN(c2ccc(CN(C3CCC3)S(=O)(=O)c3cccc(C(C)(C)C)c3)c(F)c2)CC1 [Compound 26, N-[4-(4-Acetyl-piperazin-1-yl)-2-fluoro-benzyl]-3-tert-butyl-N-cyclobutyl-benzenesulfonamide] — 2.5-fold higher, 33 nM
- CC(=O)N1CCN(c2ccc(CN(C3CCC3)S(=O)(=O)Cc3cccc(F)c3)c(F)c2)CC1 [Compound 90, N-[4-(4-Acetyl-piperazin-1-yl)-2-fluoro-benzyl]-N-cyclobutyl-C-(3-fluoro-phenyl)-methanesulfonamide] — 1.9-fold higher, 25 nM
- CC(C)CN(Cc1ccc(O[C@@H]2CCN(S(C)(=O)=O)C2)cc1)S(=O)(=O)Cc1ccccc1 [Compound 175, (R)-N-isobutyl-N-(4-((1-(methylsulfonyl)pyrrolidin-3-yl)oxy)benzyl)-1-phenylmethanesulfonamide] — 4.6-fold higher, 60 nM
- O=S1(=O)CCN(c2ccc(CN(CC(F)(F)F)S(=O)(=O)Cc3ccccc3)c(F)c2)CC1 [Compound 94, N-[4-(1,1-Dioxo-thiomorpholin-4-yl)-2-fluoro-benzyl]-C-phenyl-N-(2,2,2-trifluoro-ethyl)-methanesulfonamide] — 13-fold higher, 165 nM
- CC(C)CN(Cc1ccc(N[C@@H]2CC[C@H](CC#N)C2)cc1)S(=O)(=O)Cc1ccccc1 [Compound 205, N-(4-(((1R,3S)-3-(cyanomethyl)cyclopentyl)amino)benzyl)-N-isobutyl-1-phenylmethanesulfonamide] — 2-fold higher, 26 nM
- CC(=O)N1CCN(c2ccc(CN(C3CCC3)S(=O)(=O)c3ccc(C(C)(C)C)cc3)c(F)c2)CC1 [Compound 17, N-[4-(4-Acetyl-piperazin-1-yl)-2-fluoro-benzyl]-4-tert-butyl-N-cyclobutyl-benzenesulfonamide] — within 1.5-fold, 18 nM
- COc1cccc(S(=O)(=O)N(Cc2ccc(N3CCN(C(C)=O)CC3)cc2F)C2CCC2)c1 [Compound 29, N-[4-(4-Acetyl-piperazin-1-yl)-2-fluoro-benzyl]-N-cyclobutyl-3-methoxy-benzenesulfonamide] — 2.8-fold higher, 36 nM
- CC(C)CN(Cc1ccc(N2CCC3(CC2)COC3)cc1)S(=O)(=O)Cc1ccccc1 [Compound 183, N-(4-(2-oxa-7-azaspiro[3.5]nonan-7-yl)benzyl)-N-isobutyl-1-phenylmethanesulfonamide] — 3.6-fold higher, 47 nM
- CC(=O)N1CCN(c2ccc(CN(C3CCC3)S(=O)(=O)c3ccc(C(F)(F)F)cc3)c(F)c2)CC1 [Compound 117, N-[4-(4-Acetyl-piperazin-1-yl)-2-fluoro-benzyl]-N-cyclobutyl-4-trifluoromethyl-benzenesulfonamide] — 3.8-fold higher, 50 nM
- CC(=O)N1CCN(c2ccc(CN(C3CCC3)S(=O)(=O)Cc3cccc(Cl)c3)c(F)c2)CC1 [Compound 89, N-[4-(4-Acetyl-piperazin-1-yl)-2-fluoro-benzyl]-C-(3-chloro-phenyl)-N-cyclobutyl-methanesulfonamide] — within 1.5-fold, 19 nM
- CC(=O)N1CCN(c2ccc(CN(C3CCC3)S(=O)(=O)c3ccc(C(C)C)cc3)c(F)c2)CC1 [Compound 28, N-[4-(4-Acetyl-piperazin-1-yl)-2-fluoro-benzyl]-N-cyclobutyl-4-isopropyl-benzenesulfonamide] — 2.7-fold higher, 35 nM
- CC(C)CN(Cc1ccc(OC2CCN(S(C)(=O)=O)CC2)cc1)S(=O)(=O)Cc1ccccc1 [Compound 159, N-isobutyl-N-(4-((1-(methylsulfonyl)piperidin-4-yl)oxy)benzyl)-1-phenylmethanesulfonamide] — 2.2-fold lower, 6 nM
- CC(=O)N1CCN(c2ccc(CN(CC(C)C)S(=O)(=O)Cc3ccccc3)c(F)c2)CC1 [Compound 73, N-[4-(4-Acetyl-piperazin-1-yl)-2-fluoro-benzyl]-N-isobutyl-C-phenyl-methanesulfonamide] — 1.9-fold lower, 7 nM
- CC(=O)N1CCN(c2ccc(CN(C3CCC3)S(=O)(=O)c3cccc(F)c3)c(F)c2)CC1 [Compound 35, N-[4-(4-Acetyl-piperazin-1-yl)-2-fluoro-benzyl]-N-cyclobutyl-3-fluoro-benzenesulfonamide] — 5-fold higher, 65 nM
- CS(=O)(=O)N1CCC(c2ccc(CN(CC(F)(F)F)S(=O)(=O)Cc3ccccc3)c(F)c2)CC1 [Compound 61, N-[2-Fluoro-4-(1-methanesulfonyl-piperidin-4-yl)-benzyl]-C-phenyl-N-(2,2,2-trifluoro-ethyl)-methanesulfonamide] — 5-fold higher, 65 nM
- CC(C)CN(Cc1ccc(O[C@H]2CCN(S(C)(=O)=O)C2)cc1)S(=O)(=O)Cc1ccccc1 [Compound 176, (S)-N-isobutyl-N-(4-((1-(methylsulfonyl)pyrrolidin-3-yl)oxy)benzyl)-1-phenylmethanesulfonamide] — 18-fold higher, 240 nM
- CC(=O)N1CCN(c2ccc(CN(C3CCC3)S(=O)(=O)c3cccc(OC(F)F)c3)c(F)c2)CC1 [Compound 123, N-[4-(4-Acetyl-piperazin-1-yl)-2-fluoro-benzyl]-N-cyclobutyl-3-difluoromethoxy-benzenesulfonamide] — 5.9-fold higher, 77 nM
- CC(C)CN(C(C)c1ccc(N2CCN(S(=O)(=O)N(C)C)CC2)cc1)S(=O)(=O)Cc1ccccc1 (stereo in doubt) [Compound 126, 4-{4-[(R)-1-(Isobutyl-phenylmethanesulfonyl-amino)-ethyl]-phenyl}-piperazine-1-sulfonic acid dimethylamide] — 280-fold higher, 3700 nM
- CC(C)CN(Cc1ccc(N2CCC3(CCOC3)C2)cc1)S(=O)(=O)Cc1ccccc1 (centres unmarked) [Compound 184, N-(4-(2-oxa-7-azaspiro[4.4]nonan-7-yl)benzyl)-N-isobutyl-1-phenylmethanesulfonamide] — 4.3-fold higher, 56 nM
- CC(=O)N1CCN(c2ccc(CN(C3CCC3)S(=O)(=O)c3cccc(Cl)c3)c(F)c2)CC1 [Compound 18, N-[4-(4-Acetyl-piperazin-1-yl)-2-fluoro-benzyl]-3-chloro-N-cyclobutyl-benzenesulfonamide] — 1.7-fold higher, 22 nM
- COc1ccc(S(=O)(=O)N(Cc2ccc(N3CCN(C(C)=O)CC3)cc2F)C2CCC2)cc1 [Compound 45, N-[4-(4-Acetyl-piperazin-1-yl)-2-fluoro-benzyl]-N-cyclobutyl-4-methoxy-benzenesulfonamide] — 8.8-fold higher, 115 nM
- CC(=O)N1CCN(c2ccc(CN(C3CCC3)S(=O)(=O)c3ccccc3C(F)(F)F)c(F)c2)CC1 [Compound 47, N-[4-(4-Acetyl-piperazin-1-yl)-2-fluoro-benzyl]-N-cyclobutyl-2-trifluoromethyl-benzenesulfonamide] — 12-fold higher, 157 nM
- CCN1CC[C@H](Nc2ccc(CN(CC(C)C)S(=O)(=O)Cc3ccccc3)cc2)C(F)(F)C1 [Compound 206, (S)-N-(4-((1-ethyl-3,3-difluoropiperidin-4-yl)amino)benzyl)-N-isobutyl-1-phenylmethanesulfonamide] — 40-fold higher, 520 nM
- CC(C)CN(Cc1ccc(NC2CCN(C(=O)N(C)C)CC2)cc1)S(=O)(=O)Cc1ccccc1 [Compound 177, 4-((4-((N-isobutyl-1-phenylmethylsulfonamido)methyl)phenyl)amino)-N,N-dimethylpiperidine-1-carboxamide] — 77-fold higher, 1000 nM
- CC(C)CN(Cc1ccc(O[C@H]2C[C@H]3CC[C@@H](C2)N3S(C)(=O)=O)cc1)S(=O)(=O)Cc1ccccc1 [Compound 174, N-isobutyl-N-(4-(((1R,3R,5S)-8-(methylsulfonyl)-8-azabicyclo[3.2.1]octan-3-yl)oxy)benzyl)-1-phenylmethanesulfonamide] — 3.2-fold lower, 4 nM
- CC(=O)N1CCN(c2ccc(CN(C3CCC3)S(=O)(=O)Cc3ccc(F)cc3F)c(F)c2)CC1 [Compound 88, N-[4-(4-Acetyl-piperazin-1-yl)-2-fluoro-benzyl]-N-cyclobutyl-C-(2,4-difluoro-phenyl)-methanesulfonamide] — within 1.5-fold, 11 nM
- CC(C)CN(Cc1ccc(N2CC3(CCOCC3)C2)cc1)S(=O)(=O)Cc1ccccc1 [Compound 188, N-(4-(7-oxa-2-azaspiro[3.5]nonan-2-yl)benzyl)-N-isobutyl-1-phenylmethanesulfonamide] — 5.2-fold higher, 67 nM
- CC(=O)N1CCN(c2ccc(CN(CC(F)(F)F)S(=O)(=O)C(C)c3ccccc3)c(F)c2)CC1 (centres unmarked) [Compound 15, 1-Phenyl-ethanesulfonic acid [4-(4-acetyl-piperazin-1-yl)-2-fluoro-benzyl]-(2,2,2-trifluoro-ethyl)-amide] — within 1.5-fold, 10 nM
- CC(=O)N1CCN(c2ccc(CN(C3CCC3)S(=O)(=O)CCc3ccccc3)c(F)c2)CC1 [Compound 44, 2-Phenyl-ethanesulfonic acid [4-(4-acetyl-piperazin-1-yl)-2-fluoro-benzyl]-cyclobutyl-amide] — 8.2-fold higher, 106 nM
- CC(=O)N1CCN(c2ccc(CN(C3CCC3)S(=O)(=O)c3ccc(Cl)cc3)c(F)c2)CC1 [Compound 124, N-[4-(4-Acetyl-piperazin-1-yl)-2-fluoro-benzyl]-4-chloro-N-cyclobutyl-benzenesulfonamide] — 7.1-fold higher, 92 nM
- CC(C)CN(Cc1ccc(N[C@H]2CC[C@@H](C#N)CC2)cc1)S(=O)(=O)Cc1ccccc1 [Compound 194, N-(4-(((1S,4S)-4-cyanocyclohexyl)amino)benzyl)-N-isobutyl-1-phenylmethanesulfonamide] — 4.2-fold higher, 54 nM
- CC(C)CN(Cc1ccc(N2CCC(CS(C)(=O)=O)CC2)cc1)S(=O)(=O)Cc1ccccc1 [Compound 120, N-Isobutyl-N-[4-(4-methanesulfonylmethyl-piperidin-1-yl)-benzyl]-C-phenyl-methanesulfonamide] — 7.7-fold higher, 100 nM
